Data published in patent publication US20050138675A1, “Method for determining cardiotoxicity” (Pfizer Inc., priority 2003, published 2005).
Read-outs that look alike come from different tables or passages of the source. Marks after values point to notes of the source that are not given here.

How the values were obtained:
[1] = tested on: cardiac ventricular tissue; details: relative to vehicle control, individual samples n = 4/group, DIG 20, DOX 30, ISO 70, LPS 10 mg/kg i.p.
Source text: Quantitative real time PCR techniques (Q-PCR) are used to further analyze the genes of interest and are applied to each individual sample, rather than the pooled sample analysis used with the GeneChips. […] Individual RNA samples are reverse transcribed using a poly dT oligonucleotide primer to produce single stranded cDNA. The Primers used, listed in Table 2, were selected using on-line software that optimizes primer selection for product size and favorable Q-PCR reaction conditions (http://frodo.wi.mit.edu/cgi-bin/primer3/primer3_www.cgi). The target sequence was PCR amplified by combining primer pairs in a solution of PCR Master Mix (Promega, San Luis Obispo Calif.). PCR fragments of expected size (as determined by gel electrophoresis) were cloned using a TOPO TA cloning kit (Invitrogen, Carlsbad, Calif.) with subsequent plasmid DNA purification using a OlAprep Spin Miniprep Kit (Qiagen, Valencia, Calif.). […] Single stranded cDNA or plasmid standards were amplified for quantitation using the Quantitect™ SYBR Green PCR kit (Qiagen). […] Each cycle included denaturation at 94° C. for 15 sec, oligonucleotide annealing at 50° C. for 20 sec, product synthesis at 72° C. for 30 sec., and quantitative acquisition at 1-2° C. below the melting temperature of the product. […]

[2] = tested on: cardiac ventricular tissue; details: for number of cardiac tissue genes induced at least 2-fold higher than controls / number of cardiac tissue genes suppressed at least 2-fold lower than control expression levels: acute i.p. DIG 20.0, DOX 30.0, ISO 70.0, LPS 10.0 mg/kg
Source text: Male Sprague-Dawley rats weighing between 175-220 grams were used for all studies. Animals were purchased from Charles River Laboratories (Wilmington, Mass.) and allowed to acclimate for one week prior to use. All animals were given food and water ad libitum, and housed under a 12-hour light/12-hour dark cycle. The animals were housed in conventional plastic bottom cages (2 animals/cage) with corncob bedding. All dosing with test compounds was a single acute injection by the intraperitoneal route, in normal saline, with a 20×¾″ disposable needle attached to a 1 cc disposable syringe. These animals were euthanized by a 150 mg/kg intraperitoneal injection of Nembutal prior to collection of heart tissue.
Dose range-finding studies were completed to determine a xenobiotic dose that would produce signs of cardiotoxicity such as elevated serum troponins, creatine kinase isoenzymes, or histo-pathological tissue changes, without causing overt general toxicity. Comprehensive literature reviews were also used to select doses. […] Six or twenty-four hours later, animals were euthanized with a lethal intraperitoneal dose of Nembutal solution. Biopsy punches were used to remove approximately […] of ventricular tissue for subsequent RNA isolation and gene expression analysis. Total RNA was isolated from the samples using a Qiagen RNAeasy protocol (Valencia, Calif.). In this procedure, RNA is captured on a solid phase column, then washed with a series of solutions to purify the sample. In the last step, RNA is eluted from the column with RNAse free water. RNA quality and quantity was then checked with an optical density reading at 260/280 wavelengths, and an aliquot of RNA was run on an RNA denaturing gel. High quality RNA should have an OD 260/280 ratio of 2, and the denaturing gel should show two distinct ribosomal RNA bands.
Synthesis of double stranded cDNA from the total RNA isolated was the first step, which involves the incorporation of a T7-(dT)24 primer into the sequence, with subsequent second strand synthesis which yields a double stranded template for the in vitro transcription (IVT) reaction. The resulting cDNA was run in an IVT reaction using an Enzo BioArray High Yield RNA transcript labeling kit (Enzo Life Sciences, Inc. Farmingdale, N.Y.), during which a biotin label was incorporated into the complementary RNA (cRNA) sequence. This step also amplified the product by generating approximately 40 transcripts per cDNA substrate. After the IVT reaction, cRNA was fragmented by metallic fragmentation, and a small portion of the sample was run on a 1% agarose gel in order to visualize the fragmentation pattern. The range should be between 35 to 200 bases. Four samples from each group showing the highest purity and quality results were pooled for hybridization onto one Genechip to greatly reduce experimental costs. Genes of interest that are found through the use of GeneChip technology, will then be verified using real time PCR techniques on each individual sample.
Next, the cRNA was hybridized to the RG U34A GeneChip oligonucleotide array (Affymetrix Inc, Santa Clara, Calif.). An aliquot of the fragmented cRNA was mixed with control components, injected into the array, and the filled array was allowed to incubate at 45° C. for 16 hours in an Affymetrix oven, which rotates the samples continuously during incubation. The next morning, the array was taken from the oven and the sample was removed and frozen at −80° C. for possible future use. That is, in the event of a defective chip, the hybridization solution can be re-used. The array chamber was then filled with a wash buffer, and placed in an automated fluid exchange system. The fluidics station controls the washing and staining of the probe array with the fluorescently labeled streptavidin stain solution and an antibody solution. After the staining process was complete the chips were scanned by an Agilent GeneArray laser scanner (Agilent, Palo Alto, Calif.).

[3] = 6 hour, relative to vehicle control, pooled n = 4 samples/group, DIG 20, DOX 30, ISO 70, LPS 10 mg/kg i.p.
[4] = 24 hour, relative to vehicle control, pooled n = 4 samples/group, DIG 20, DOX 30, ISO 70, LPS 10 mg/kg i.p.

Substance: lipopolysaccharide [LPS]
- AA957003 (intercellular calcium-binding protein) Q-PCR ± SD fold change ([1]; 6 hour): 8.86 ± 6.16 Fold Change
- AA892801 (EST) Q-PCR ± SD fold change ([1]; 24 hour): 4.41 ± 2.03 Fold Change
- AA957003 (intercellular calcium-binding protein) Array fold change [2, 3]: 4.00* Fold Change
- AI176456 (metallothionein) Array fold change [2, 3]: 327.72* Fold Change
- J02722 (heme oxygenase) Array fold change [2, 3]: 14.69* Fold Change
- X01118 (gamma-rANP) Array fold change [2, 3]: 0.33* Fold Change
- X89225 (L-like neutral amino acid transport protein) Array fold change [2, 3]: 2.44* Fold Change
- number of cardiac tissue genes induced at least 2-fold higher than controls ([2]; 6 hours after treatment): 374 genes
- number of cardiac tissue genes suppressed at least 2-fold lower than control expression levels ([2]; 6 hours after treatment): 663 genes
- AA892801 (EST) Array fold change [2, 4]: 2.58* Fold Change
- AA899106 (cyclin D2) Array fold change [2, 4]: 0.06* Fold Change
- AB005743 (fatty acid transporter) Array fold change [2, 4]: 2.15* Fold Change
- AF016296 (neuropilin) Array fold change [2, 4]: 0.28* Fold Change
- AI008852 (EST) Array fold change [2, 4]: 3.47* Fold Change
- AI170776 (GRB2) Array fold change [2, 4]: 2.18* Fold Change
- D85183 (SHPS-1) Array fold change [2, 4]: 3.70* Fold Change
- M57276 (leukocyte antigen MRC-OX44) Array fold change [2, 4]: 4.17* Fold Change
- U14950 (synapse-associated protein 97) Array fold change [2, 4]: 2.19 Fold Change
- U68272 (interferon gamma receptor) Array fold change [2, 4]: 2.96* Fold Change
- X52140 (integrin alpha-1) Array fold change [2, 4]: 0.17* Fold Change
- X71127 (complement protein C1q beta chain) Array fold change [2, 4]: 3.70* Fold Change
- number of cardiac tissue genes induced at least 2-fold higher than controls ([2]; 24 hours after treatment): 279 genes
- number of cardiac tissue genes suppressed at least 2-fold lower than control expression levels ([2]; 24 hours after treatment): 172 genes
